Measured values taken from ChEMBL document CHEMBL4261587 (Eur J Med Chem, 2018).

How the values were obtained:
[1] = species on record: Homo sapiens; assay: Selectivity index, ratio of IC50 for recombinant full length human Dyrk1B to IC50 for recombinant full length human Dyrk1A
[2] = species on record: Homo sapiens; assay: Selectivity index, ratio of IC50 for recombinant human Haspin expressed in Baculovirus expression system to IC50 for recombinant full length human Dyrk1A expressed in Baculovirus expression system

Compound `O=C(Cc1ccc(F)cc1)Nc1cncc(-c2cc(-c3cccnc3)cs2)c1` has a Ratio IC50 [1] of 27 and a Ratio IC50 [2] of 2.5.
